Chains of the proteins cited; added tags and fusions are not shown. Lines headed by an entry give the natural chain unless they say otherwise; changes in a name come on top.
UniProt Q12809: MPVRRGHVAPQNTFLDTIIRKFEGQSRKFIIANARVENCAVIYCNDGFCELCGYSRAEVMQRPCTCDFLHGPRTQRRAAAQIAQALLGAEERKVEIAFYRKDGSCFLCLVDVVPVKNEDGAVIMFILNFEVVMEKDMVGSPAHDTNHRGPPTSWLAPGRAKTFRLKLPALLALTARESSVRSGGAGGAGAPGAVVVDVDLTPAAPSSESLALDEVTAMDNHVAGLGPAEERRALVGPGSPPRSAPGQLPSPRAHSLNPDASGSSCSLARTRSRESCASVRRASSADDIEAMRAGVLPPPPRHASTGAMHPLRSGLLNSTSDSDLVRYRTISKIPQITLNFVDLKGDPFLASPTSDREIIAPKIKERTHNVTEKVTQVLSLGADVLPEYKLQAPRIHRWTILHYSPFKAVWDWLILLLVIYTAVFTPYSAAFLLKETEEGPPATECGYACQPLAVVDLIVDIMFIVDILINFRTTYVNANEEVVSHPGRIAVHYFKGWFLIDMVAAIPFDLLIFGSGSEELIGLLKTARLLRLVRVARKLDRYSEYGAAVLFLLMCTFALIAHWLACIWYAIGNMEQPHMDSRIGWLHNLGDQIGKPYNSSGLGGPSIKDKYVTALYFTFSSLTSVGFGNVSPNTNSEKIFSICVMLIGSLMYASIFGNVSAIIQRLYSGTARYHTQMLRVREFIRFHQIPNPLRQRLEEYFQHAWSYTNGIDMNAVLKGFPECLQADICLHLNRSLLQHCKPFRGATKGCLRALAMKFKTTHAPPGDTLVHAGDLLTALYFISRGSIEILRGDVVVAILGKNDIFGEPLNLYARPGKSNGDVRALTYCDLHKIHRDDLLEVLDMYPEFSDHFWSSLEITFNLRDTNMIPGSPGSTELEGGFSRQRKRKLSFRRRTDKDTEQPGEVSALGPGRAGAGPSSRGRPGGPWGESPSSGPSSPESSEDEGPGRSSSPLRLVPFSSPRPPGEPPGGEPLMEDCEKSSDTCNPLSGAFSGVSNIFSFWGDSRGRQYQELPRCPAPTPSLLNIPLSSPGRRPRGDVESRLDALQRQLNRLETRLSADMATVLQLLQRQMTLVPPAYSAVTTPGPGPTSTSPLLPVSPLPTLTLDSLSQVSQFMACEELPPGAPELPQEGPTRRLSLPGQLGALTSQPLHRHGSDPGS

What follows are compounds tested against Voltage-gated inwardly rectifying potassium channel KCNH2 (Homo sapiens, UniProt Q12809) (assay: Compound was evaluated for the displacement of labelled MK-499 from the cloned channel expressed in HEK cells (Ikr channel)).
Assay type: cell-based, HEK293
`CC(C(=O)N[C@]1(c2ccccc2)CC[C@@H](N2CCN(C(C)C)CC2)CC1)c1cc(C(F)(F)F)cc(C(F)(F)F)c1` (stereo partly drawn) gave a Ki of 1.2 µM. With `CC(C(=O)NC1(c2ccccc2)CCC(N2CCC3(CCOC3)CC2)CC1)c1cc(C(F)(F)F)cc(C(F)(F)F)c1` (stereo not drawn) the Ki was 0.71 µM. For `CC(C(=O)N[C@]1(c2ccccc2)CC[C@@H](N2CCC(=O)CC2)CC1)c1cc(C(F)(F)F)cc(C(F)(F)F)c1` (stereo partly drawn), the Ki was 4 µM.
